Here are results for 22 compounds from PubChem BioAssay (NCI).

The structures appear in SMILES notation. Only a part is listed here, and it is no random draw.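 Values shown are percent growth following 48 h exposure of cells in 96-well plates to a single concentration of compound; below 10 was considered active.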 The source made the active and inactive calls.

Common to all, as to assay: NCI-60 one-dose screen, 48 h (100 = growth as untreated, 0 = no growth, -100 = all killed)
Common to all, as to settings: 10 µM unless noted

Assay [1] concerns NCI-H23 lung.
For assay [2], the system named is NCI-H226 lung.
The test system of assay [3] is NCI-H322M lung.
Assay [4] concerns HOP-62 NSCLC.
Assay [5] relates to NCI-H460 lung.
Assay [6] has as its system NCI-H522 lung.
For assay [7], the system named is A549/ATCC NSCLC.
Assay [8] deals with 786-0 renal.
For assay [9], the system named is COLO 205 colon.
Assay [10] deals with HOP-92 NSCLC.

On to `Fc1cccc(CNCCCl)c1`, for which the growth is inactive: 104% in assay [1]; inactive: 101% in [2]; inactive: 135% in assay [3]; inactive: 103% in [4]; inactive: 116% in assay [5]; inactive: 106% in assay [6]. Further, the values for the growth in [7], in [8] and in assay [9] were inactive: 110%, inactive: 111% and inactive: 115%, respectively.

Regarding `O=[As](O)(c1ccc(O)cc1)c1ccccc1O`, the growth in assay [1] was inactive: 95.8%; in assay [2], inactive: 99.6%; in [3], inactive: 92.1%; in [4], inactive: 96.6%; in assay [5] it was inactive: 106%; in [6], inactive: 97%. The results for the growth in assay [7], in assay [8] and in assay [9] were inactive: 103%, inactive: 94.9% and inactive: 140%, respectively.

For the compound `Cc1ccc(NCCCl)c2c(=O)c3ccccc3sc12`, the growth is inactive: 85.8% in [1]; inactive: 95.6% in assay [2]; inactive: 83.5% in assay [3]; inactive: 119% in [4]; inactive: 101% in assay [5]; inactive: 100% in assay [6]. In addition, the growth in assay [7] is inactive: 102%; in assay [8] it was inactive: 103%; in assay [9] it was inactive: 114%.

Take `COP(=O)(CCCBr)OC`: the growth in assay [1] is inactive: 107%; in assay [2], inactive: 95.5%; in [3] it was inactive: 106%; in [4], inactive: 104%; in assay [5], inactive: 109%; in [6], inactive: 99.5%. Further, the values for the growth in [7], in [8] and in assay [9] were inactive: 101%, inactive: 102% and inactive: 115%, respectively.

Consider `Cc1cc(C)cc(OP(=O)(Cl)Oc2cc(C)cc(C)c2)c1`, for which the growth was inactive: 96.2% in assay [1]; inactive: 101% in [2]; inactive: 96.8% in assay [3]; inactive: 99.9% in assay [4]; inactive: 107% in [5]; inactive: 105% in assay [6]. Besides, the growth was inactive: 118% in assay [7], inactive: 109% in assay [8] and inactive: 118% in assay [9].

With `CCCOP(=S)(Nc1nc(N)cc(=O)[nH]1)OCCC`, the growth was inactive: 99.4% in assay [1]; inactive: 93.3% in [2]; inactive: 102% in assay [3]; inactive: 98.8% in assay [4]; inactive: 108% in [5]; inactive: 81.3% in [6]. Also, the growth in assay [7] is inactive: 106%; in assay [8], inactive: 93.7%; in assay [9], inactive: 116%.

`O=[N+]([O-])c1ccc(SSc2ccc([N+](=O)[O-])cc2[N+](=O)[O-])c([N+](=O)[O-])c1`: the growth is inactive: 95% in assay [1]; inactive: 95.7% in [2]; inactive: 99.7% in assay [3]; inactive: 95.3% in [4]; inactive: 103% in assay [5]; inactive: 93.1% in [6]. Besides, the values for the growth in [7], in assay [8] and in assay [9] were inactive: 99.6%, inactive: 102% and inactive: 110%, respectively.

As for `O=[As](O)(O)c1ccc(I)cc1`, the growth in assay [1] is inactive: 112%; in assay [2] it was inactive: 105%; in assay [3], inactive: 102%; in assay [4] it was inactive: 100%; in [5], inactive: 115%; in assay [7] it was inactive: 101%. Besides, the growth in assay [8] was inactive: 105%; in assay [9], inactive: 108%.

On to `COC(=O)C1(C)COP(=O)(N2CCCC2)OC1` (stereo not drawn), for which the growth in assay [1] is inactive: 98.6%; in assay [3] it was inactive: 92.4%; in [4], inactive: 106%; in [5], inactive: 107%; in assay [10], inactive: 107%; in assay [6] it was inactive: 93.3%. Further, the growth in assay [7] was inactive: 108%; in [8], inactive: 99.4%; in assay [9] it was inactive: 108%.

As for `[N-]=[N+]=NC(=O)c1cccc([N+](=O)[O-])c1`, the growth in assay [1] was inactive: 51.8%; in [2] it was inactive: 79.8%; in assay [3], inactive: 96.7%; in assay [4], inactive: 91.4%; in assay [5], inactive: 42.4%; in [6], inactive: 36.8%. Moreover, the growth is inactive: 77.8% in [8] and inactive: 107% in assay [9].

As to `CSc1ccc(Nc2c([N+](=O)[O-])cc([N+](=O)[O-])cc2[N+](=O)[O-])cc1`, the growth in assay [1] was inactive: 79.4%; in assay [2] it was inactive: 43.5%; in [3], inactive: 87.6%; in [5], inactive: 58.6%; in assay [6], inactive: 15.4%; in [7], inactive: 71%. Besides, the growth in assay [8] is inactive: 77.8%; in assay [9], inactive: 32%.

For `C/C(N)=N/P(=O)(Oc1ccccc1)Oc1ccccc1`, the growth was inactive: 101% in [1]; inactive: 100% in [3]; inactive: 100% in [4]; inactive: 112% in [5]; inactive: 101% in assay [10]; inactive: 92.7% in assay [6]. In addition, the growth in [7] was inactive: 100%; in assay [8], inactive: 93.2%; in assay [9] it was inactive: 105%.

Consider `O=[N+]([O-])C1C(O)C(O)C([N+](=O)[O-])C(O)C1O` (stereo not drawn), for which the growth in assay [1] was inactive: 111%; in assay [2] it was inactive: 99.5%; in [3], inactive: 95.7%; in [4], inactive: 88.7%; in assay [5] it was inactive: 105%; in assay [7] it was inactive: 102%. Further, the growth is inactive: 104% in assay [8] and inactive: 99.2% in assay [9].

Take `C/C(N)=N\P(=O)(OCc1ccccc1)OCc1ccccc1`: the growth is inactive: 97.7% in [1]; inactive: 99.1% in assay [3]; inactive: 105% in assay [4]; inactive: 108% in assay [5]; inactive: 102% in [10]; inactive: 100% in assay [6]. Also, the growth in assay [7] was inactive: 95.6%; in [8] it was inactive: 103%; in [9] it was inactive: 111%.

Regarding `c1cc(-c2nn[nH]n2)ccc1-c1nn[nH]n1`, the growth in [1] is inactive: 104%; in assay [2], inactive: 96.8%; in [4], inactive: 100%; in [10] it was inactive: 87.7%; in assay [6], inactive: 97.5%; in assay [7], inactive: 96.9%. The values for the growth in assay [8] and in assay [9] were inactive: 104% and inactive: 99.3%, respectively.

`COC(=O)C1(C)COP(=O)(N2CCCCCC2)OC1` (stereo not drawn): the growth in assay [1] was inactive: 97.7%; in [2], inactive: 111%; in assay [3], inactive: 110%; in assay [5], inactive: 113%; in [6], inactive: 100%; in assay [7], inactive: 104%. Moreover, the growth in assay [8] was inactive: 104%; in assay [9] it was inactive: 109%.

Regarding `COc1cccc([As]=O)c1` (stereo not drawn), the growth was active: -65% in assay [1]; active: -54.4% in [2]; active: -91.5% in assay [3]; active: -90.2% in assay [4]; active: -40.7% in assay [5]; active: -70.4% in [7]. For the same compound, the growth in assay [8] was active: -93.2%; in [9], active: -80.3%.

On to `N/C(=N/[N+](=O)[O-])N(CCBr)N=O`, for which the growth in [1] was inactive: 102%; in assay [2], inactive: 95.9%; in assay [3], inactive: 93.3%; in assay [4] it was inactive: 97.7%; in assay [5] it was inactive: 106%; in assay [7], inactive: 93%. Also, the growth is inactive: 95.1% in [8] and inactive: 99.6% in assay [9].

As to `CCCC1OP(=O)(Nc2ccccc2)OCC1CC` (stereo not drawn), the growth in assay [1] was inactive: 92.8%; in assay [2] it was inactive: 107%; in assay [4] it was inactive: 102%; in assay [5], inactive: 103%; in assay [10] it was inactive: 89.6%; in [7], inactive: 95.1%. The figures for the growth in [8] and in assay [9] were inactive: 106% and inactive: 104%, respectively.

Turning to `CCN(CCI)Cc1cccc2ccccc12`, the growth was inactive: 97.1% in [1]; inactive: 98.7% in assay [2]; inactive: 97.1% in [4]; inactive: 103% in assay [5]; inactive: 94.9% in assay [10]; inactive: 94.5% in assay [6]. The figures for the growth in assay [7], in assay [8] and in assay [9] were inactive: 101%, inactive: 102% and inactive: 102%, respectively.

In the case of `ClCCNCc1cccc(Cl)c1`, the growth in assay [1] is inactive: 102%; in assay [2], inactive: 93.1%; in [3] it was inactive: 108%; in assay [4], inactive: 96%; in [10], inactive: 88.3%; in [6], inactive: 114%. In addition, the growth in [7] was inactive: 90.4%; in assay [8], inactive: 97.3%; in assay [9] it was inactive: 105%.

Turning to `COC(=O)C1(C)COP(=O)(NCc2ccccc2)OC1` (stereo not drawn), the growth in assay [1] is inactive: 96.4%; in assay [2], inactive: 113%; in assay [3], inactive: 111%; in assay [5], inactive: 110%; in [6] it was inactive: 108%; in [7] it was inactive: 101%. Further, the growth is inactive: 103% in [8] and inactive: 118% in assay [9].
